In US12146167B2 (priority 2021, dated 2024):

System: Cg_MetY_P2T (O-acetylhomoserine sulfhydrylase variant metY_P2T, SEQ ID NO: 6)
Conditions: 1 nmol polypeptide, O-acetyl homoserine-HCl, phosphate buffer 0.1 M, pH 7.5, 120 min at 50° C., LC-MS QQQ

With methyl P-methylphosphinate the Product was “yes”.

Some compounds may have been tested in ways that are not shown here.
